Here are results for 1 molecule from US20190375821A1 (IBENTRUS, published 2019).

By UniProt entry, the sequences of proteins in these tests, tags left out. Chains listed by the source or under a name are the forms on record and can include a tag or linker.
UniProt P15692, other isoform, or with tags, fused parts or gaps limits assumed: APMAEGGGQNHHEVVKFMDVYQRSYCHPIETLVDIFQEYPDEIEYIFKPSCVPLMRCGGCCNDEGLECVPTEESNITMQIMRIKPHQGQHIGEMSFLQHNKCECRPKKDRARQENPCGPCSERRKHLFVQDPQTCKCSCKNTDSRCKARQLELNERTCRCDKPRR

This test concerns the target T1, VEGF165 (UniProt P15692-4 27-191).
T1 construct: also called VEGFA
The test can be described thus: ELISA, VEGF165.

B1: Ranibizumab (Fab, V domains shown)
VH: EVQLVESGGGLVQPGGSLRLSCAASGYDFTHYGMNWVRQAPGKGLEWVGWINTYTGEPTYAADFKRRFTFSLDTSKSTAYLQMNSLRAEDTAVYYCAKYPYYYGTSHWYFDVWGQGTLVTVSS
VL: DIQLTQSPSSLSASVGDRVTITCSASQDISNYLNWYQQKPGKAPKVLIYFTSSLHSGVPSRFSGSGSGTDFTLTISSLQPEDFATYYCQQYSTVPWTFGQGTKVEIKR
Consider B1, for which binding was put at a Kd of 0.15 nM.
